Key:
[1] = molecular target: GppNHp-loaded KRAS4b (amino acids 1-169) G12C/C118S protein (Homo sapiens, UniProt P01116, C118S/G12C); assay: Covalent cysteine 12 modification by MALDI-TOF MS, GppNHp-loaded KRAS G12C; type: biochemical; conditions: 15 minutes reaction time
[2] = molecular target: Avi-KRAS G12C (1-169) GppNHp/RAF1 RBD-3xFLAG (52-151) (Homo sapiens, UniProt P01116, G12C); assay: biochemical; conditions: Raf1-GppNHp-KRAS G12C disruption, Raf1 RBD-KRAS G12C-GppNHp disruption assay IC50
[3] = molecular target: GDP-loaded KRAS4b (amino acids 1-169) G12C/C118S protein (Homo sapiens, UniProt P01116, C118S/G12C); assay: Covalent cysteine 12 modification by MALDI-TOF MS, GDP-loaded KRAS G12C; type: biochemical; conditions: 15 minutes reaction time
[4] = compound 95 or later using 1 μM proteins
[5] = compounds 94 or before using 5 μM proteins

Structure (SMILES) | GppNHp-KRAS G12C percent of modification [1, 4] | IC50 [2] [µM] | GDP-KRAS G12C percent of modification [3, 4] | GppNHp-KRAS G12C percent of modification [1, 5] | GDP-KRAS G12C percent of modification [3, 5]
C=CC(=O)N1C2CC1CN(c1nc(OCC34CCCN3CCC4)nc3c(F)c(-c4ccc(F)c5sc(N)nc45)c(Cl)cc13)C2 [Compound 161] | D (percent of modification <10%) | 5 to 20 | A (percent of modification ≥70%) | – | –
C=CC(=O)N1CCN(c2ncnc3c(F)c(-c4ccc(F)c5sc(N)nc45)c(Cl)c(OC)c23)CC1 [Compound 82] | – | > 20 | – | D (percent of modification <10%) | A (percent of modification ≥70%)
C=CC(=O)N1CC(Nc2ncnc3c(F)c(-c4ccc(F)c5sc(N)nc45)cc(OC)c23)C1 [Compound 69, 1-(3-((7-(2-amino-7-fluorobenzo[d]thiazol-4-yl)-8-fluoro-5-methoxyquinazolin-4-yl)amino)azetidin-1-yl)prop-2-en-1-one] | – | > 20 | – | D (percent of modification <10%) | B (50≤percent of modification <70%)
C=CC(=O)N1CC2CN(c3nc(OC[C@@H]4CCCN4C)nc4c(F)c(-c5ccc(F)c6sc(N)nc56)c(Cl)cc34)CC2C1 (stereo partly drawn) [Compound 32] | – | > 20 | – | D (percent of modification <10%) | A (percent of modification ≥70%)
C#CC(=O)N1CC(Nc2ncnc3c(F)c(-c4ccc(F)c5sc(N)nc45)c(Cl)cc23)C1 [Compound 22, 1-[3-[[7-(2-amino-7-fluoro-1,3-benzothiazol-4-yl)-6-chloro-8-fluoro-quinazolin-4-yl]amino]azetidin-1-yl]prop-2-yn-1-one] | – | 5 to 20 | – | C (10%≤percent of modification <50%) | A (percent of modification ≥70%)
C=CC(=O)N1CCN(c2nc(OC[C@@H]3CCCN3C)nc3c(F)c(-c4ccc(F)c5sc(N)nc45)c(C(F)F)cc23)CC1 [Compound 211] | D (percent of modification <10%) | 5 to 20 | A (percent of modification ≥70%) | – | –
NC(=O)/C=C/C(=O)N1CC(Nc2ncnc3c(F)c(-c4ccc(F)c5sc(N)nc45)c(Cl)cc23)C1 [Compound 61] | – | > 20 | – | D (percent of modification <10%) | B (50≤percent of modification <70%)
C=CC(=O)N1CCN(c2nc(OC[C@@H]3CCCN3C)nc3c(F)c(-c4ccc(F)c5sc(N)nc45)c(-c4cnn(C)c4)cc23)CC1 [Compound 143] | D (percent of modification <10%) | > 20 | A (percent of modification ≥70%) | – | –
C=CC(=O)N1CCN(c2nc(OC[C@@H]3CCCN3C)nc3c(F)c(-c4ccc(F)c5sc(N)nc45)c(-c4ccccc4)cc23)CC1 [Compound 114] | D (percent of modification <10%) | > 20 | D (percent of modification <10%) | – | –
C=CC(=O)N1CCC12CN(c1nc(OC[C@@H]3CCCN3C)nc3c(F)c(-c4ccc(F)c5sc(N)nc45)c(Cl)cc13)C2 [Compound 57] | – | > 20 | – | D (percent of modification <10%) | A (percent of modification ≥70%)
C=C(F)C(=O)N1C[C@H](C)N(c2nc(OC[C@@]34CCCN3C[C@H](F)C4)nc3c(F)c(-c4ccc(F)c5sc(N)nc45)c(C(F)(F)F)cc23)C[C@H]1C [Compound 203] | D (percent of modification <10%) | 0.5 to 5 | B (50≤percent of modification <70%) | – | –
Nc1nc2c(-c3c(Cl)cc4c(NC5CN(C(=O)CCl)C5)ncnc4c3F)ccc(F)c2s1 [Compound 5, 1-(3-((7-(2-amino-7-fluorobenzo[d]thiazol-4-yl)-6-chloro-8-fluoroquinazolin-4-yl)amino)azetidin-1-yl)-2-chloroethan-1-one] | – | 0.5 to 5 | – | A (percent of modification ≥70%) | A (percent of modification ≥70%)
CCOC(=O)/C=C/C(=O)N1CC(Nc2ncnc3c(F)c(-c4ccc(F)c5sc(N)nc45)c(Cl)cc23)C1 [Compound 24] | – | 0.5 to 5 | – | B (50≤percent of modification <70%) | A (percent of modification ≥70%)

The remaining lines, values ahead:

GppNHp-KRAS G12C percent of modification [1, 4] | IC50 [2] [µM] | GDP-KRAS G12C percent of modification [3, 4] | GppNHp-KRAS G12C percent of modification [1, 5] | GDP-KRAS G12C percent of modification [3, 5] | Structure (SMILES)
D (percent of modification <10%) | 0.5 to 5 | C (10%≤percent of modification <50%) | – | – | C=CC(=O)N1CC(N(C)c2nc(OCC34CCCN3CC(F)(F)C4)nc3c(F)c(-c4ccc(F)c5sc(N)nc45)c(C(F)(F)F)cc23)C1 (stereo not drawn) [Compound 187]
C (10%≤percent of modification <50%) | < 0.5 | A (percent of modification ≥70%) | – | – | C=CC(=O)N1CCN(c2nc(OC[C@]34CCCN3C[C@H](F)C4)nc3c(F)c(-c4ccc(F)c5sc(N)nc45)c(C(F)(F)F)cc23)[C@@H](C)C1 [Compound 177]
D (percent of modification <10%) | 0.5 to 5 | B (50≤percent of modification <70%) | – | – | C=CC(=O)N1CCN(c2nc(OC[C@@H]3CC(F)(F)CN3C)nc3c(F)c(-c4ccc(F)c5sc(N)nc45)c(C(F)(F)F)cc23)CC1 [Compound 131]
C (10%≤percent of modification <50%) | < 0.5 | B (50≤percent of modification <70%) | – | – | C=CC(=O)N1C[C@H](C)N(c2nc(OC[C@]34CCCN3C[C@H](F)C4)nc3c(F)c(-c4ccc(F)c5sc(N)nc45)c(C(F)(F)F)cc23)C[C@H]1C [Compound 204, 1-((2R,5S)-4-(7-(2-amino-7-fluorobenzo[d]thiazol-4-yl)-8-fluoro-2-(((2R,7aR)-2-fluorotetrahydro-1H-pyrrolizin-7a(5H)-yl)methoxy)-6-(trifluoromethyl)quinazolin-4-yl)-2,5-dimethylpiperazin-1-yl)prop-2-en-1-one]
C (10%≤percent of modification <50%) | 0.5 to 5 | A (percent of modification ≥70%) | – | – | C=CC(=O)N1CCN(c2nc(OCC34CCCN3CCC4)nc3c(F)c(-c4ccc(F)c5oc(N)nc45)c(C(F)(F)F)cc23)CC1 [Compound 162, 1-(4-(7-(2-amino-7-fluorobenzo[d]oxazol-4-yl)-8-fluoro-2-((tetrahydro-1H-pyrrolizin-7a(5H)-yl)methoxy)-6-(trifluoromethyl)quinazolin-4-yl)piperazin-1-yl)prop-2-en-1-one]
A (percent of modification ≥70%) | < 0.5 | A (percent of modification ≥70%) | – | – | C=CC(=O)N1C[C@H](C)[C@@H](N(C)c2nc(OC[C@@]34CCCN3C[C@H](F)C4)nc3c(F)c(-c4ccc(F)c5sc(N)nc45)c(C(F)(F)F)cc23)C1 [Compound 296]
D (percent of modification <10%) | 0.5 to 5 | C (10%≤percent of modification <50%) | – | – | C=CC(=O)N1CCN(c2nc(OCC34CCCN3CC(F)(F)C4)nc3c(F)c(-c4ccc(F)c5sc(N)nc45)c(C(F)(F)F)cc23)CC1 (stereo not drawn) [Compound 192]
C (10%≤percent of modification <50%) | 0.5 to 5 | A (percent of modification ≥70%) | – | – | C=CC(=O)N1CCN(c2nc(OC[C@@H]3CCCN3C)nc3c(F)c(-c4ccc(F)c5sc(N)nc45)c(-c4ccoc4)cc23)CC1 [Compound 98]
D (percent of modification <10%) | 0.5 to 5 | A (percent of modification ≥70%) | – | – | C=CC(=O)N1CCN(c2nc(OC[C@@H]3CCCN3C)nc3c(F)c(-c4ccc(F)c5sc(N)nc45)c(CC)cc23)CC1 [Compound 146]
C (10%≤percent of modification <50%) | < 0.5 | A (percent of modification ≥70%) | – | – | C=CC(=O)N1C[C@H](C)N(c2nc(OC[C@@]34CCCN3C[C@H](F)C4)nc3c(F)c(-c4ccc(F)c5sc(N)nc45)c(Cl)cc23)C[C@H]1C [Compound 266]
C (10%≤percent of modification <50%) | < 0.5 | C (10%≤percent of modification <50%) | – | – | C=CC(=O)N1CC[C@H](N(C)c2nc(OC[C@@]34CCCN3C[C@H](F)C4)nc3c(F)c(-c4ccc(F)c5sc(N)nc45)c(C(F)(F)F)cc23)C1 [Compound 188]
C (10%≤percent of modification <50%) | < 0.5 | A (percent of modification ≥70%) | – | – | C=CC(=O)N1CCN(c2nc(OC[C@]34CCCN3C[C@H](F)C4)nc3c(F)c(-c4ccc(F)c5sc(N)nc45)c(C(F)(F)F)cc23)C[C@H]1C [Compound 190]
– | < 0.5 | – | A (percent of modification ≥70%) | A (percent of modification ≥70%) | C=CC(=O)N1CC(Nc2nc(OC[C@@H]3CCCN3C)nc3c(F)c(-c4ccc(F)c5sc(N)nc45)c(Cl)cc23)C1 [Compound 23, 1-(3-((7-(2-amino-7-fluorobenzo[d]thiazol-4-yl)-6-chloro-8-fluoro-2-(((S)-1-methylpyrrolidin-2-yl)methoxy)quinazolin-4-yl)amino)azetidin-1-yl)prop-2-en-1-one]
